Data from patent US10166294B2, “Multifunctional forms of polyoxazoline copolymers and drug compositions comprising the same” (priority 2008, dated 2019).

Key:
[1] = tested on: human colorectal cancer cells (HT-29)
Method: (§1) Female athymic (Ncr:Nu) mice were implanted subcutaneously with HT-29 tumor fragments and the tumors were allowed to reach a weight range of 162 to 188 mg. […] The control group received normal saline. The animals were weighed and the tumors measured twice weekly after administration of the first drug injection.

[2] = tested on: platinum resistant ovarian cancer cells (A2780/DDPt)
Method: Female athymic (Ncr:Nu) mice were implanted subcutaneously with A2780/DDPt tumor fragments and the tumors were allowed to reach a weight range of 163 to 189 mg. […] One group of animals was treated with cisplatin at a dose of 8 mg/kg. The control group received normal saline. The animals were weighed and the tumors measured twice weekly after administration of the first drug injection.

[3] = tested on: oropharyngeal carcinoma cancer cells (KB)
Method: as §1, with “KB” for “HT-29”, “160” for “162”, “190” for “188”

[4] = 40, 60 or 90 mg/kg i.v. every fourth day x3
[5] = all doses (40, 60, 90 mg/kg i.v.)

Substance	Maximum loss in body weight [1, 4]	Tolerability [1, 5]	Maximum loss in body weight [2, 4]	Tolerability [2, 5]	Tolerability [3, 5]	Maximum loss in body weight ([3]; mouse, in vivo)
H-(Irino.HCl)10(EOZ)200-T-PA [POZ-irinotecan]	2%	well tolerated	2%	well tolerated	well tolerated	–
H-(Irino.HCl)10(EOZ)190-T-Folate [Folate-POZ-irinotecan]	–	–	–	–	–	2%
